Source: publication PMC4811417, “Sulforaphane Suppresses Hepatitis C Virus Replication by Up-Regulating Heme Oxygenase-1 Expression through PI3K/Nrf2 Pathway” (PLoS ONE, 2016)

Columns and labels:
[1] = system: HCV subgenomic replicon in Ava5 cells; assay: Combination of SFN with antiviral drugs in replicon cells (CalcuSyn2, Chou and Talalay); assay type: cell-based, Hepatitis C virus
Experimental: (§1) HCV-infected and Ava5 cells were treated with serial concentrations of SFN (0, 1.25, 2.5, 5.0, 7.5 and 10.0 μM) combined respectively with or without IFN-α (7.5, 15, 30, and 60 U·mL^-1), telaprevir (0.075, 0.15, 0.3, and 0.6 μM), sofosbuvir (10, 20, 40, and 80 nM) or daclatasvir (1, 2, 4, and 8 pM) in a fixed ratio for 3 days. The anti-HCV activities of the different combinations were determined by qRT-PCR. The drug combination data were analyzed using CalcuSyn2™ software (Biosoft, Cambridge, UK) based on the method by Chou and Talalay. The multiple drug dose effects and combination index (CI) values were evaluated and presented as antagonism (CI > 1), additivity (CI = 1) or synergism (CI < 1).

[2] = system: JFH-1 virus particle-infected Huh-7 cells; assay: Combination of SFN with antiviral drugs in HCV-infected cells (CalcuSyn2, Chou and Talalay); assay type: cell-based, Hepatitis C virus; conditions: JFH-1-infected Huh-7 cells
Experimental: as §1

Q: How did the Influence [1] turn out when “IFN-α: IFN-α-2a (Roferon-A) obtained from Roche Ltd” was run?
A: Synergistic

Q: What about the “CI values at ED75” value ([1]; fixed ratio, 3 days) of the same substance?
A: 0.8

Q: What about the “CI values at ED90” value ([1]; fixed ratio, 3 days) of the same substance?
A: 0.5

Q: And the Influence [2]?
A: Synergistic

Q: And the “CI values at ED75” value ([2]; fixed ratio, 3 days)?
A: 0.8

Q: And the “CI values at ED90” value ([2]; fixed ratio, 3 days)?
A: 0.4
